Measured affinities in a library of Ab-14 light chain variants

The target is the same throughout: PDVDLGDISGINAS, from the HR2 region of SARS-CoV-2 spike.

Ab-14 is the parent antibody, in scFv form: VH, then a (GGGGS)3 linker, then VL. The heavy chain is unchanged in all variants.
VH: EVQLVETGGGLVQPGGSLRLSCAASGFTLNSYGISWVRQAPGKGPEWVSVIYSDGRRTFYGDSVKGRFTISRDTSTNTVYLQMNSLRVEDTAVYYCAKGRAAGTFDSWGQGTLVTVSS
VL: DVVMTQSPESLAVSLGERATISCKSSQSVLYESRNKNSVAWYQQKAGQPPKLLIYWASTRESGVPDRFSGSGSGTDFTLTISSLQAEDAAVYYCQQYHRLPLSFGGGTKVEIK

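Phage display of a naive human antibody library on the peptide gave the parent. The variants were designed computationally from a first round of random CDR variants and then made and measured. Group labels follow the data file (Ctrl: baseline library sampled from a position-specific scoring matrix, with some repeated check sequences; En: ensemble of fine-tuned language models; GP: Gaussian process model; HC: hill climbing; Gen: genetic algorithm; Gibbs: Gibbs sampling; a sequence that several methods proposed may carry one label only). The assay is AlphaSeq: two haploid yeast populations carry antibody and antigen on their surface. Pairs that bind mate more often; barcode pairs of the diploids are counted by sequencing. A regression on co-assayed BCL2-family reference pairs converts the normalised counts of each replicate to an apparent Kd. Each pool was mated in six replicate cultures.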

Each variant is given by its three light chain CDRs, as the data file delimits them; those of the parent are KSSQSVLYESRNKNSVA, WASTRES, QQYHRLPLS.
Numbers give log10(Kd / nM), so 0 is 1 nM and 3 is 1 µM. Smaller is tighter.
The mean shown is taken over the replicates in which the pair was detected.
An entry "nd" has no value in the source: the pair was not observed among the diploids in any replicate. This suggests poor binding but is not conclusive.
The authors' rule: three or more of the six replicates give a measured affinity, fewer mean a poor binder.
Empty control strains, which show no peptide, gave a signal in 4% of pairings with all light chain designs; the median was 2.64 and 95% of these signals were weaker than 1.59. No background was subtracted.
Of ten entries with the parent sequence, four were seen in most replicates (averages 0.34 to 2.37), three in one and three in none, so single entries are noisy.
A sequence measured in both rounds can read differently, since the two assays cover different ranges.

CDR-L1 | CDR-L2 | CDR-L3 | group | mean log10 Kd (nM) | seen in
KLYASTMLESHDKNSIA | DLTTRGN | QQYHRLPLS | En_HC | 0.53 | 6 of 6
KLLQSVQYGSRALNSVA | QMETRED | QQYHRLPLA | En_HC | 1.32 | 6 of 6
YRSQSVLYGSRNKNSVA | EASTRES | QQYHCLPLS | Ctrl | nd | 0 of 6
KLSQSMLYESRNWNSVA | NASQRLS | QQYHRLPLS | GP_Gen | 0.31 | 6 of 6
KSSQSVLYESRNKNSVA | GASTRES | QQYGRLPLS | Ctrl | 0.35 | 6 of 6
KFSQSVLYESREKNSVA | WASTRES | QQYHRLPLS | Ctrl | nd | 0 of 6
KYSQDKLYESRNKHSVA | WASTRES | QQYHRLPLS | Ctrl | 0.89 | 6 of 6
KLYERGEGSQKVDRNIA | EMSTRCE | QSYQRLPLS | En_Gibbs | 0.91 | 6 of 6
TISQMSTLFSQTINNVA | EVSTREE | QQYDRLPLM | En_Gen | 0.43 | 6 of 6
HISMSMNYLSRNKNSIA | EESTRED | QQYYRLPLS | En_HC | -0.44 | 6 of 6
KSDQGVLYESRNKNSVA | GASLRES | QQYHRLPLS | GP_HC | 0.07 | 6 of 6
ALNDVTRMESNKKNSIA | DMSTRES | QQYHRLPLS | En_HC | 0.29 | 6 of 6
KFYQSVLYESRNKNSVA | HASTRED | QQYHRLPLS | GP_HC | 0.48 | 6 of 6
KLSLSLGESKQSERNIA | NMRVSVA | QQYDHLPLT | En_Gibbs | 0.32 | 6 of 6
KLSQSVLMESRNVNNVA | EASQRES | QQYHRLPLS | GP_Gibbs | 1.15 | 5 of 6
MISQLMNMGQFAINSVA | QASLRND | QQYDRLPLM | En_Gen | 1.25 | 6 of 6
KLLQVTEYESFNKNSVA | QTSTRES | QDYDRLPLS | En_HC | 2.34 | 2 of 6
HVSMLTLGGLKERNSVA | QMTTREN | QQYDRLPLS | En_Gen | 0.73 | 6 of 6
KVSQSVLYEFRNKNSVA | SASTREC | QQYHRLPLS | Ctrl | 0.23 | 6 of 6
NISYLQGEPTNSVNNVA | QTSKRAP | QYYQRLPLC | En_Gibbs | 0.32 | 6 of 6
TISGVMQTSSHIKNNVA | EVSMRCK | QQYVRLPLA | En_Gen | 1.42 | 6 of 6
KLGASMYVSTEAKRAIA | QDEMRVH | QQYDRLPLM | En_Gibbs | 2.29 | 5 of 6
TLYGLSVSMSKNVNSVA | EMTTREQ | QQYDRLPLV | En_Gen | 0.60 | 6 of 6
KLRQSTLYESRNKNSVA | NASTRMS | QQYHRLPLS | GP_HC | -0.02 | 6 of 6
NVKAMLNMWAPDKHNVA | EADERAS | QQYSRLPLG | En_Gibbs | 0.27 | 6 of 6
KYSQLVPEESRNKNSVA | NASTREE | QQYHRLPLS | GP_Gibbs | 0.06 | 6 of 6
KSSPSVLNESRNKHSCA | SASTRES | QQYHRLPLD | Ctrl | nd | 0 of 6
KSTQPSLYESTNKNSVA | AASTRES | QQYHRLPLS | Ctrl | 0.11 | 6 of 6
KSSSSYLYESGNKNSVA | NASTRES | QQYHRLPLS | GP_HC | 0.26 | 6 of 6
MLDEYQMYDAANLNAIA | DANCTMF | QQYYSLPLS | En_Gibbs | 1.82 | 6 of 6
SISGFMKSLSAHINSVA | DMTNRED | QQYDRLPLS | En_Gen | 0.74 | 6 of 6
KVTMYELEMEFNRSAVA | AAEVRAP | QQYWRLPLE | En_Gibbs | 2.53 | 3 of 6
KLQQSFLYESRNKNSVA | NASTRES | QDYHRLPLS | GP_Gen | 0.01 | 6 of 6
HVKEDLNMGMKFQSSVA | SGAHREI | QQYYRLPLG | En_Gibbs | 0.37 | 6 of 6
SMSNLQILPDVWKNSIA | DAEHVEY | QQYSRLPLT | En_Gibbs | 0.36 | 6 of 6
TISQMWFLESHNKNNVA | EESTRED | QSYFRLPLS | En_HC | 1.13 | 6 of 6

Further variants, results first:

mean log10 Kd (nM) | seen in | CDR-L1 | CDR-L2 | CDR-L3 | group
1.89 | 6 of 6 | HIAMMVGTKGYNKNSVA | NAETRED | QQYHRLPLS | En_HC
1.32 | 6 of 6 | KSSQSVLYESTNKNSVA | WASTRES | QQYFRLPLS | Ctrl
1.04 | 6 of 6 | TIGMFMDNLSQNRNNVA | DTSTLGS | QSYDRLPLS | En_Gen
1.01 | 6 of 6 | HVEHDWLESNATMKAVA | EGATLAD | QQYGRLPLS | En_Gibbs
0.38 | 6 of 6 | KLSQSVGMGSRNKWSVA | EASTRES | QQYHRLPLS | GP_Gibbs
0.42 | 6 of 6 | TIAQSMLYLSNIKNSIA | QAETRED | QQYHRLPIS | En_HC
nd | 0 of 6 | KLSDPTREWIANQSAVA | EDADTVH | QQYARLPLT | En_Gibbs
-0.08 | 6 of 6 | KLSQSVLYESRNKNAVA | DASTRES | QQYHRLPLS | GP_Gen
0.37 | 6 of 6 | HIQQVKAEQKNAENNIA | SGAQRVW | QQYSRLPFI | En_Gibbs
nd | 0 of 6 | KSSQSVLYESRNKNSVA | WASTRES | QQVHRTPLS | Ctrl
1.68 | 1 of 6 | QFDLHTKQIETIESAIA | ETSVRAA | QSYVRLPLS | En_Gibbs
nd | 0 of 6 | KSMQAVLYEGRNKFSVA | WASTRES | QQYHRLPLS | Ctrl
-0.38 | 6 of 6 | KMPQSQLYESRNKNSVA | NASTRES | QQYHRLPLS | GP_Gen
0.58 | 6 of 6 | KLMHLSFVHDREWNNVA | DLNVKAS | QQYDRLPLV | En_Gibbs
-0.03 | 6 of 6 | KSLQSWDYESRNKNSVA | HASTREQ | QQYHRLPLS | GP_HC
1.71 | 5 of 6 | KCSQSVLMESPNKNSVA | WASTRES | QQYHRLPLS | Ctrl
nd | 0 of 6 | KSSQSVLYTSRNKNNVA | WASTRES | QQYHALPLS | Ctrl
-0.18 | 6 of 6 | KSQQSQEYESRNKNSVA | HASTRCD | QQYHRLPLS | GP_HC
0.18 | 6 of 6 | KSSLSVLYESRNKNSVA | SASIRES | QQYVRLPLS | Ctrl
0.71 | 6 of 6 | NIVGRVEDKQTETANIA | DAELRAG | QQYSRLPLS | En_Gibbs
0.75 | 6 of 6 | KISFNMGETQRNKNSVA | EVSTVPS | QQYWRLPLS | En_HC
1.90 | 6 of 6 | RLSDLVKMESRNTNSVA | DNSTRGS | QQYDRLPLS | En_HC
-0.45 | 6 of 6 | KISQSELYESRNKNSVA | GASTRES | QQYHRLPLS | GP_Gen
0.32 | 6 of 6 | MYSQSYGGEQRNKNSVA | HASLREE | QQYHRLPLS | GP_Gibbs
1.43 | 5 of 6 | QLFSRWGQLTEIRQAVA | DATEVID | QQYMHLPLT | En_Gibbs
0.11 | 6 of 6 | KMMNSLGAFKQSEDNVA | NVEQKVA | QQYDHLPLT | En_Gibbs
2.19 | 3 of 6 | KSSQSVMYESRNFNSVA | WASTRES | QQYHRLPLS | Ctrl
0.74 | 6 of 6 | NITQQGDAMGDQRANVA | NGETLEH | QQYAHLPLL | En_Gibbs
nd | 0 of 6 | MISQLINMGSFAINSVA | QASLRCN | QQYDRLPLT | En_Gen
0.00 | 6 of 6 | KAEGSELYESRNKNSVA | NASMRES | QQYHRLPLS | GP_Gibbs
-0.04 | 6 of 6 | KSSQSDLYESVNKNSVA | HASTRES | QQYHRLPLS | GP_HC
2.76 | 6 of 6 | FFSLIQGSYGEANNSIA | ERNERAP | QQYGRLPLV | En_Gibbs
0.32 | 6 of 6 | KLSQSWLYESRNKNNVA | HASTRES | QQYHRLPLS | GP_Gen
-0.11 | 6 of 6 | KSGTGVLYESRNKNSVA | GASTRES | QQYHRLPLS | GP_HC
0.16 | 6 of 6 | GLSNQETEQIQHANSIA | DRDERDV | QQYAHLPLS | En_Gibbs
0.29 | 6 of 6 | MISDLTMYGSRKKNSVA | DLSTRGS | QQYHRLPLS | En_HC
1.81 | 6 of 6 | RLRGLNFESGNARNNIA | DAHIHEV | QQYAWLPLC | En_Gibbs

Extract of 10 entries:

CDR-L1,CDR-L2,CDR-L3,group,mean log10 Kd (nM),seen in
KLSLSLGESKQSERNIA,NMRVSVA,QQYDHLPLT,En_Gibbs,0.32,6 of 6
KVSQSVLYEFRNKNSVA,SASTREC,QQYHRLPLS,Ctrl,0.23,6 of 6
KSQQSQEYESRNKNSVA,HASTRCD,QQYHRLPLS,GP_HC,-0.18,6 of 6
KMPQSQLYESRNKNSVA,NASTRES,QQYHRLPLS,GP_Gen,-0.38,6 of 6
TLYGLSVSMSKNVNSVA,EMTTREQ,QQYDRLPLV,En_Gen,0.60,6 of 6
NIVGRVEDKQTETANIA,DAELRAG,QQYSRLPLS,En_Gibbs,0.71,6 of 6
KSSQSVLYTSRNKNNVA,WASTRES,QQYHALPLS,Ctrl,nd,0 of 6
HVKEDLNMGMKFQSSVA,SGAHREI,QQYYRLPLG,En_Gibbs,0.37,6 of 6
QFDLHTKQIETIESAIA,ETSVRAA,QSYVRLPLS,En_Gibbs,1.68,1 of 6
KLSDPTREWIANQSAVA,EDADTVH,QQYARLPLT,En_Gibbs,nd,0 of 6

The measurements come from Li et al. 2023 (doi:10.1038/s41467-023-39022-2) through the FLAb antibody collection.